Results taken from patent EP1220857B1, “GONADOTROPIN RELEASING HORMONE RECEPTOR ANTAGONISTS AND THEIR RELATED METHODS OF USE” (NEUROCRINE BIOSCIENCES, INC., priority 1999, dated 2001).

Sequences of proteins named here, by UniProt entry; tags and fusion partners are left off.
UniProt P30968, whole entry: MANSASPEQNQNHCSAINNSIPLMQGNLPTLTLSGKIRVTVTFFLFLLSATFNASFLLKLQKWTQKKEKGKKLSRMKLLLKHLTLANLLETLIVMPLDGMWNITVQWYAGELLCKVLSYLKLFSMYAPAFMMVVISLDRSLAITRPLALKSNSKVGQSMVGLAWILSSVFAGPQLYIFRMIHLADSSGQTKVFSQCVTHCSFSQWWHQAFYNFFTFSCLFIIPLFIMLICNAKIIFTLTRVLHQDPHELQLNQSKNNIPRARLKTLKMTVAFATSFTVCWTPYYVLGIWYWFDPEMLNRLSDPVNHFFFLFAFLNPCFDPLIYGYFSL

biological target: GnRH receptor (Homo sapiens, UniProt P30968); experiment: GnRH receptor membrane binding assay; conditions: displacement of [125I]-labeled GnRH peptide from membranes of cells transfected with GnRH receptor expression vectors; Ki by Cheng-Prusoff
Experimental: Activity of GnRH receptor antagonists are typically calculated from the IC50 as the concentration of a compound necessary to displace 50% of the radiolabeled ligand from the GnRH receptor, and is reported as a "Ki" value calculated by the following equation: Ki =(IC50)/(1 + L / KD) [formula] where L = radioligand and KD = affinity of radioligand for receptor (Cheng and Prusoff, Biochem. Pharmacol. 22:3099, 1973). GnRH receptor antagonists of this invention have a Ki of 100 µM or less. In a preferred embodiment of this invention, the GnRH receptor antagonists have a Ki of less than 10 µM, and more preferably less than 1µM. More preferred compounds include: 1-1, 1-2-5, 12, 13-15, 19, 21, 27, 31, 32, 34, 37, 55, 58, 64, 73, 2B, 2D, 3A, 3B, 3D, 4A, 4B, 4C, 4D, 4G, 4H, 5A and 5B (see Examples below).
The GnRH analog is labeled by the chloramine-T method. To 10 µg of peptide in 20 µl of 0.5M sodium phosphate buffer, pH 7.6, is added 1 mCi of Na125I, followed by 22.5 µg chloramine-T and the mixture vortexed for 20 sec. The reaction is stopped by the addition of 60 µg sodium metabisulfite and the free iodine is removed by passing the iodinated mixture through a C-8 Sep-Pak cartridge (Millipore Corp., Milford, MA). The peptide is eluted with a small volume of 80% acetonitrile/water. The recovered labeled peptide is further purified by reverse phase HPLC on a Vydac C-18 analytical column (The Separations Group, Hesperia, CA) on a Beckman 334 gradient HPLC system using a gradient of acetonitrile in 0.1% TFA. The purified radioactive peptide is stored in 0.1 % BSA/20% acetonitrile/0.1% TFA at -800C and can be used for up to 4 weeks.
Cells stably, or transiently, transfected with GnRH receptor expression vectors are harvested, resuspended in 5% sucrose and homogenized using a polytron homogenizer (2x 15 sec). Nuclei are removed by centrifugation (3000 x g for 5 min.), and the supernatant centrifuged (20,000 x g for 30 min, 4° C) to collect the membrane fraction. The final membrane preparation is resuspended in binding buffer (10mM Hepes (pH 7.5), 150 mM NaCl, and 0.1% BSA) and stored at -70°C. Binding reactions are performed in a Millipore MultiScreen 96-well filtration plate assembly with polyethylenimine coated GF/C membranes. The reaction is initiated by adding membranes (40 ug protein in 130 ul binding buffer) to 50ul of [^125I]-labeled GnRH peptide (~100,000 cpm), and 20ul of competitor at varying concentrations. The reaction is terminated after 90 minutes by application of vacuum and washing (2X) with phosphate buffered saline. Bound radioactivity is measured using 96-well scintillation counting (Packard Topcount) or by removing the filters from the plate and direct gamma counting. Ki values are calculated from competition binding data using non-linear least squares regression using the Prism software package (GraphPad Software).

Ki, < 1000 nM:
COc1cccc(-c2c(C)n(Cc3ccccc3F)c3nc(C4(C)CCOC4=O)c(CN(C)Cc4ccco4)n3c2=O)c1 (centres unmarked)
COC(=O)C(C)(C)c1nc2n(Cc3ccccc3F)c(C)c(-c3cccc(OC)c3)c(=O)n2c1CNCc1ccccn1
COCCN(C)Cc1c(C(C)(C)C)nc2n(Cc3ccccc3F)c(C)c(-c3ccc4c(c3)OCO4)c(=O)n12
CCOC(=O)Cc1nc2n(Cc3ccccc3F)c(C)c(-c3cccc(OC)c3)c(=O)n2c1CN(C)Cc1ccccc1
COC(=O)C(C)(C)c1nc2n(Cc3ccccc3F)c(C)c(-c3cccc(OC)c3)c(=O)n2c1CN(C)Cc1ccco1
Cc1c(-c2ccc3c(c2)OCO3)c(=O)n2c(CN(C)Cc3ccccn3)c(C(C)(C)C)nc2n1Cc1ccccc1F
CCN(CC)CCN(C)Cc1c(C(C)(C)C)nc2n(Cc3ccccc3F)c(C)c(-c3ccc4c(c3)OCO4)c(=O)n12
COC(=O)C(C)(C)c1nc2n(Cc3ccccc3F)c(C)c(-c3cccc(OC)c3)c(=O)n2c1CN(C)CCc1ccccc1
CC(=O)c1cccc(-c2c(C)n(Cc3ccccc3F)c3nc(C(C)(C)C)c(CN(C)CCc4ccccn4)n3c2=O)c1
COC(=O)C(C)(C)c1nc2n(Cc3ccccc3F)c(C)c(-c3cccc(OC)c3F)c(=O)n2c1CN(C)CCc1ccccn1
CC(=O)c1cccc(-c2c(C)n(Cc3ccccc3F)c3nc(C(C)(C)C)c(CN(C)Cc4ccccc4)n3c2=O)c1
Cc1c(-c2ccccc2F)c(=O)n2c(CN(C)CCc3ccccn3)c(C(C)(C)C)nc2n1Cc1ccccc1F
CCOC(=O)Cc1nc2n(Cc3ccccc3F)c(C)c(-c3cccc(OC)c3)c(=O)n2c1CN(C)CCc1ccccn1
COc1cccc(-c2c(C)n(Cc3ccccc3F)c3nc(C4(C)CCOC4=O)c(CN(C)Cc4ccccc4)n3c2=O)c1 (centres unmarked)
COc1cccc(-c2c(C)n(Cc3ccccc3F)c3nc(C(C)(C)C)c(CN(C)Cc4ccccn4)n3c2=O)c1
Cc1c(-c2ccccc2)c(=O)n2c(CN(C)Cc3ccco3)c(C(C)(C)C)nc2n1Cc1ccccc1F
COc1cccc(-c2c(C)n(Cc3ccccc3F)c3nc(C(C)(C)C)c(CN(C)C(C)c4ccccc4)n3c2=O)c1 (centres unmarked)
COC(=O)C(C)(C)c1nc2n(Cc3ccccc3F)c(C)c(-c3cccc(OC)c3)c(=O)n2c1CN(C)Cc1ccccc1
COC(=O)C(C)(C)c1nc2n(Cc3ccccc3F)c(C)c(-c3cccc(OC)c3)c(=O)n2c1CN(C)CCc1ccccn1

same assay, conditions: displacement of [125I]-labeled GnRH peptide from membranes of cells transfected with GnRH receptor expression vectors; Ki by Cheng-Prusoff; tested form: TFA

Ki, < 1000 nM:
COc1cccc(-c2c(C)n(Cc3ccccc3F)c3nc(C(C)(C)C)c(CN(C)CCc4ccccn4)n3c2=O)c1
